Assay results from publication PMC12781765 (2025).

B1: Gαo wild-type (non-tagged) [human] / GFP-Ric8A [not stated] (parent complex)
chain 1: MGCTLSAEERAALERSKAIEKNLKEDGISAAKDVKLLLLGAGESGKSTIVKQMKIIHEDGFSGEDVKQYKPVVYSNTIQSLAAIVRAMDTLGIEYGDKERKADAKMVCDVVSRMEDTEPFSAELLSAMMRLWGDSGIQECFNRSREYQLNDSAKYYLDSLDRIGAADYQPTEQDILRTRVKTTGIVETHFTFKNLHFRLFDVGGQRSERKKWIHCFEDVTAIIFCVALSGYDQVLHEDETTNRMHESLMLFDSICNNKFFIDTSIILFLNKKDLFGEKIKKSPLTICFPEYTGPNTYEDAAAYIQAQFESKNRSPNKEIYCHMTCATDTNNIQVVFDAVTDIIIANNLRGCGLY
chain 2: MEPRAVAEAVETGEEDVIMEALRSYNQEHSQSFTFDDAQQEDRKRLAELLVSVLEQGLPPSHRVIWLQSVRILSRDRNCLDPFTSRQSLQALACYADISVSEGSVPESADMDVVLESLKCLCNLVLSSPVAQMLAAEARLVVKLTERVGLYRERSFPHDVQFFDLRLLFLLTALRTDVRQQLFQELKGVRLLTDTLELTLGVTPEGNPPPTLLPSQETERAMEILKVLFNITLDSIKGEVDEEDAALYRHLGTLLRHCVMIATAGDRTEEFHGHAVNLLGNLPLKCLDVLLTLEPHGDSTEFMGVNMDVIRALLIFLEKRLHKTHRLKESVAPVLSVLTECARMHRPARKFLKAQVLPPLRDVRTRPEVGEMLRNKLVRLMTHLDTDVKRVAAEFLFVLCSESVPRFIKYTGYGNAAGLLAARGLMAGGRPEGQYSEDEDTDTDEYKEAKASINPVTGRVEEKPPNPMEGMTEEQKEHEAMKLVTMFDKLSRNRVIQPMGMSPRGHLTSLQDAMCETMEQQLSSDPDSDPD

Variants of: B1
Assay: co-immunoprecipitation (GFP nanobody IP, Western blot quantification); HEK293T cells; n = 4; parent: 1; read off a plot

Row | ratio to parent | Variant
1 | ~6.4 | chain 1 T327K
2 | ~5.7 | chain 1 T327R
